Data on 1 compound can be found in patent EP0762893B1, “TREATMENT OF PLASMA” (SUOMEN PUNAINEN RISTI VERIPALVELU, priority 1994, dated 1995).

The conditions of this data set: 30 µmol/l of MB and 3 mmol/l of ascorbate at pH 3.

Molecules are shown by their SMILES.

Consider `CN(C)c1ccc2nc3ccc(=[N+](C)C)cc-3sc2c1` [MB, methylene blue], for which the “form of MB in concentrated solution” value is “reduced to a nonabsorbing form”.
